Experimental logP (octanol/water) values from OPERA 2.9

Source: data files of OPERA 2.9 (Mansouri et al.), github.com/kmansouri/OPERA.

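OPERA's authors assembled the values from existing databases and did not measure them anew. One number stands for a compound and property, with no spread given. How each value was measured is not recorded, so precision varies. The measured form (salt, isomer or mixture) is not always the one drawn. Some entries may be limits or estimates that an upstream database listed as plain numbers.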

logP is the log10 of the octanol-water partition coefficient; higher is more lipophilic.
Cells with "–" have no entry in this list.
The databases behind each value are named after "via".

SMILES | name | logP (octanol/water) | via
C=C(C)C(=O)OC1CC(C)CC(C)(C)C1 (stereo unspecified) | 3,3,5-Trimethylcyclohexyl 2-methylprop-2-enoate | 5.25 | eChemPortal
C=CS(=O)(=O)[O-].[Na+] | Sodium ethenesulfonate | -1.01 | eChemPortal
NCC(=O)Nc1ccc(C(=O)O)cc1 | 4-(Glycylamino)benzoic acid | 0.95 | OCHEM
O=S(=O)([O-])CCC[n+]1ccccc1 | 3-(Pyridinium-1-yl)propane-1-sulfonate | -2.78 | eChemPortal
CC1=NN(c2ccc(S(=O)(=O)O)cc2)C(=O)C1 | – | -2.04 | eChemPortal
CC1=NN(c2cc(S(=O)(=O)[O-])ccc2Cl)C(=O)C1/N=N/c1cc(Cl)ccc1Oc1ccccc1Cl.[Na+] (stereo partly drawn) | – | 0.796 | eChemPortal
CCOc1ccccc1NC(=O)C(=O)Nc1ccc(CCCCCCCCCC(C)C)cc1 | – | 4.4 | eChemPortal
C=C(C)C(=O)OCCOC(=O)CCC(=O)O | (2-((2-Methyl-1-oxoallyl)oxy)ethyl) hydrogen succinate | 0.783 | eChemPortal
CCC1=NCCO1 | Oxazole, 2-ethyl-4,5-dihydro- | 0.264 | eChemPortal
CC1CNCC(C)O1 (stereo unspecified) | 2,6-Dimethyl morpholine | -0.126 | eChemPortal
CCOC(=O)C(C)(O)c1ccc(Oc2ccccc2)cc1 (stereo unspecified) | Ethyl 2-(4-phenoxyphenyl)lactate | 2.7 | eChemPortal
OCc1cc(Cl)cc(Cl)c1Cl | Benzene, 1,2,5-trichloro-3-methoxy- | 3.93 | OCHEM
CCN(CCC#N)c1ccc(/C=C/C2=[N+](C)c3ccccc3C2(C)C)c(C)c1.O=P([O-])(O)O | – | -1.744 | eChemPortal
CCCCNc1cc(-c2nc(N)n[nH]2)ccn1 | 4-(3-Amino-1H-1,2,4-triazol-5-yl)-N-butylpyridin-2-amine | 2.15 | OCHEM
COc1ccc([N+](=O)[O-])cc1OC(C)=O | 2-Methoxy-5-nitrophenol acetate | 1.487 | eChemPortal
COCCCCC(=O)c1ccc(C(F)(F)F)cc1 | Fluvoxketone | 3.3 | eChemPortal
NCCCCCCN.O=C(O)CCCCC(=O)O | Hexanedioic acid, compd. with 1,6-hexanediamine (1:1) | -4.4 | eChemPortal
O=CC1=C(Cl)/C(=C/O)CCC1 | (3E)-2-Chloro-3-(hydroxymethylene)cyclohexene-1-carbaldehyde | 1.45 | eChemPortal
CCO[Si](CCCNC=O)(OCC)OCC | N-[3-(Triethoxysilyl)propyl]formamide | 1.2 | eChemPortal
CCCCC(C(=O)OCC)C(=O)OCC | Diethyl butylmalonate | 3.4 | eChemPortal
CCCCCCCCCCCCCC(=O)OC(C)C | Isopropyl tetradecanoate | 7.71 | eChemPortal
N=C(N)NC(=O)Cc1c(Cl)cccc1Cl | Guanfacine | 1.7 | PubChem
COC(C)(C)C1CC=C(C)CC1 (stereo unspecified) | Cyclohexene, 4-(1-methoxy-1-methylethyl)-1-methyl- | 4.5 | eChemPortal
Cc1cc(C2CCCCC2)n(O)c(=O)c1.NCCO | Ciclopirox olamine | 0.52 | eChemPortal
COc1cc(/N=N/c2cc(S(=O)(=O)[O-])c3cccc(S(=O)(=O)[O-])c3c2)c(C)cc1/N=N/c1c(S(=O)(=O)[O-])cc2cc(Nc3ccccc3)ccc2c1O.[Na+].[Na+].[Na+] | C.I. Direct Violet 35 | -5 | eChemPortal
C=CC(=O)OCCCCOc1ccc(C(=O)Oc2ccc(OC(=O)c3ccc(OCCCCOC(=O)C=C)cc3)c(C)c2)cc1 | – | 5.1 | eChemPortal
CC(C)c1ccc(Cl)cc1CNC1CC1 | – | 4.5 | eChemPortal
O=C(O)C(CCBr)(c1ccccc1)c1ccccc1 | 4-Bromo-2,2-diphenylbutyric acid | 2.75 | eChemPortal
CCCOC(=O)n1c(-c2cscn2)nc2ccccc21 | Propyl 2-(1,3-thiazol-4-yl)benzimidazole-1-carboxylate | 2.98 | OCHEM
CCCCC(=O)OC(=O)CCCC | valeric anhydride | 3.33 | eChemPortal
C1CC2C3CC(C2C1)C1(CCCO1)C3 (stereo unspecified) | Decahydrospiro[furan-2(3H),5'-[4,7]methano[5H]indene] | 4.7 | eChemPortal
O=C(O)CCCCCCCCCCCCC(=O)O | Tetradecanedioic acid | 4.2 | eChemPortal
C=CCOc1ccc(S(=O)(=O)c2ccc(O)cc2)cc1 | 4-[[4-(Allyloxy)phenyl]sulfonyl]phenol | 2.12 | eChemPortal
O=c1[nH]c2cc(/N=C/c3c([O-])ccc4ccccc34)c(/N=C/c3c([O-])ccc4ccccc34)cc2[nH]1.[Ni+2] | – | 1.2 | eChemPortal
CC(C)(C)N.CCCC(NC(C)C(=O)N1C(C(=O)O)CC2CCCCC21)C(=O)OCC (stereo unspecified) | Perindopril erbumine | 2.6 | PubChem
C[C@@H]1C[C@H]2[C@@H]3CCC4=CC(=O)CC[C@]4(C)[C@H]3CC[C@]2(C)[C@H]1C(=O)CO | 21-Hydroxy-16 alpha-methyl-4-pregnene-3,20-dione | 3.24 | eChemPortal
Brc1ccc(OCC2CO2)c(Br)c1 (stereo unspecified) | 2,4-Dibromophenyl glycidyl ether | 3.518 | eChemPortal
O=C1CCCCCN1SSN1CCCCCC1=O | 1,1'-Disulfanediyldiazepan-2-one | 2.25 | eChemPortal
CC1(COc2ccc(CC3SC(=O)NC3=O)cc2)CCCCC1 (stereo unspecified) | Ciglitizone | 4 | OCHEM
O=C1CCCCCCCC=CCCCCCCO1 | – | 5.723 | eChemPortal
CC(=O)OC/C=C(C)/C=C/C=C(C)/C=C/C1=C(C)CCCC1(C)C | Retinol acetate | 9.4 | eChemPortal
C=C[C@@](C)(/C=C/c1ccc(O)cc1)CCC=C(C)C | Bakuchiol | 5.09 | eChemPortal
CC(C)c1ccc(S(=O)(=O)O)cc1 | 4-Isopropylbenzenesulfonic acid | 0.41 | eChemPortal
FC(F)(F)c1nc2c(Cl)c(Cl)c(Cl)c(Cl)c2[nH]1 | – | 3.97 | OCHEM
COc1ccccc1N1CCN(CCNC(=O)c2ccncc2)CC1 | – | 1.2 | OCHEM
C[C@@H]1CCN(c2nc3cc(Cl)ccc3o2)CCN1.Cl | – | 3.19 | eChemPortal
CC(CC(C)C)=NO | N-(4-Methyl-2-pentanylidene)hydroxylamine | 1.54 | eChemPortal
CCCCCCCC(=O)NCC(=O)O | Glycine, N-(1-oxooctyl)- | 2.052 | eChemPortal
c1ccc(-c2ccc(-c3nc(-c4ccc(-c5ccccc5)cc4)nc(-c4ccc(-c5ccccc5)cc4)n3)cc2)cc1 | Tris-biphenyl triazine | 5.6 | eChemPortal
Oc1ccc(-c2ccc(O)cc2)cc1 | 4,4'-Biphenyldiol | 2.7 | eChemPortal
FC(F)(F)C(F)(F)C(F)(F)C(F)(F)C(F)(F)C(F)(F)CCS | 2-(Perfluorohexyl)ethanethiol | 5.3 | eChemPortal
C[Si]1(C)N[Si](C)(C)N[Si](C)(C)N1 | 2,2,4,4,6,6-Hexamethylcyclotrisilazane | -0.38 | eChemPortal
O=C1OC2(c3ccc([O-])cc3Oc3cc([O-])ccc32)c2ccccc21.[Na+].[Na+] | Fluorescein sodium | 0.67 | eChemPortal
OC[C@H]1O[C@H](O)[C@H](O)[C@@H](O)[C@@H]1O | alpha-D-Glucopyranose | -2.975 | OCHEM

The last 4 entries again:

| SMILES | name | logP (octanol/water) | via |
|---|---|---|---|
| FC(F)(F)C(F)(F)C(F)(F)C(F)(F)C(F)(F)C(F)(F)CCS | 2-(Perfluorohexyl)ethanethiol | 5.3 | eChemPortal |
| C[Si]1(C)N[Si](C)(C)N[Si](C)(C)N1 | 2,2,4,4,6,6-Hexamethylcyclotrisilazane | -0.38 | eChemPortal |
| O=C1OC2(c3ccc([O-])cc3Oc3cc([O-])ccc32)c2ccccc21.[Na+].[Na+] | Fluorescein sodium | 0.67 | eChemPortal |
| OC[C@H]1O[C@H](O)[C@H](O)[C@@H](O)[C@@H]1O | alpha-D-Glucopyranose | -2.975 | OCHEM |